Measurements: PubChem BioAssay AID1471 (National Center for Advancing Translational Sciences (NCATS), 2008)
This is a selection; strong and weak results do not stand in their true shares. Activity calls are given as the source filed them. Calls come from the whole dose curve; as a rule, active = well fitted activation curve with a large enough effect; inconclusive = small, poorly fitted or top-dose-only effect; inactive = no such curve, though single readings can be large or run the other way.

Assay: qHTS Multiplex Assay to Identify Dual Action Probes in a Cell Model of Huntington: Cytoprotection (ATP);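 note: toxic huntingtin expression switched on by the ecdysone agonist tebufenozide; % of control where 0% means no effect; nearly all actives have a fitted effect of over 45% in size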
Details: PC12 HTT-Q103 induced, ATP luminescence, 40 h
Excerpt: NIH Chemical Genomics Center [NCGC]
NIH Molecular Libraries Probe Production centers Network [MLPCN]
Assay Submitter (PI): Wei Zheng
Huntington's disease is a neurodegenerative disorder caused by a trinucleotide repeat expansion in Exon 1 of the Huntingtin gene. The CAG trinucleotide encodes glutamine and polyglutamine expansions cause cell death in selective areas of the brain. Huntington polyglutamine repeats have the tendency to form aggregates which are observable in later stages of the disease. The exact nature of the aggregates, whether toxic, protective, or insignificant, is unclear.
A stable PC12 cell line containing a gene fusion of Exon 1 of the Huntingtin gene linked to GFP under the control of the inducible ecdysone promoter were used as the cell-based model of Huntington Disease for high throughput screening. Exon 1 of the Huntingtin gene contained an expansion of 103 polyglutamines (Q103) which, when expressed, caused cell death and distinct, bright GFP aggregates. The amount of cell death and the size and intensity of GFP aggregates increased over time and induction level. The cell death were quantified with a measurement of ATP content in the cells. A maximal 40-50% of cell death was observed when the Huntington gene was induced in this cell line.
We optimized this assay in a homogeneous 1536 well format. A quantitative high throughput screen (qHTS) was conducted on the PC12 cells which were induced to express the toxic fusion construct. Small molecules which prevented cell death were identified by using a luminescent ATP quantification method (Perkin Elmer's ATPlite).
PC12 cells stably containing a construct with an ecdysone inducible promoter expressing GFP fused to the exon 1 of HTTQ103 (Huntington protein which containing a 103 ployglutamine expansion) were used.
NCGC Assay Protocol Summary:
Sequence, Parameter, Description
1, Reagent, 5 uL 1500 cells/well 1536 TC treated White clear bottom plate
2, Compound, 23 nL Tebufenozide inducer (100 nM final) to all columns
3, Compound, 23 nL 40 uM to 0.5 nM Libraries
5, Reagent, 5 ul ATPLite cell death assay reagent
6, Detector, 4 sec integration with a Viewlux Luminescent
Media consisted of phenol red free DMEM + 5% equine serum (Hyclone # SH30072.03 ), 5% supplemented Bovine Calf Serum (Hyclone # SH30074.03 ), 1x pen/strep, no G418
Control columns: 1 = DMSO, 2= 2 uM teb dilns (1:1), 4 = 100 nM Teb inducer. Sample columns received 100 nM Teb.

[1] = at 10 µM (top of the series) unless noted

SMILES: Nc1cccc([As](=O)(O)c2ccccc2)c1
- cytoprotection (ATP increase) [1]: inactive: 3.07%

SMILES: O=P1(Nc2ccc(Br)cn2)COc2ccccc2OC1
- cytoprotection (ATP increase) [1]: inactive: -5.07% [at 0.074 µM]

SMILES: Cc1ccc(OCC(=O)OC2CN3CCC2CC3)cc1 (stereo not given)
- cytoprotection (ATP increase) [1]: inactive: 15.7%

SMILES: O=[As](O)(c1cccs1)c1cccs1
- cytoprotection (ATP increase) [1]: inactive: 8.94%

SMILES: O=P1(Nc2ncccn2)COc2ccccc2OC1
- cytoprotection (ATP increase) [1]: inactive: -11.5% [at 0.074 µM]

SMILES: CN(C)C1(CNC(=O)c2ccc(S(C)(=O)=O)cc2)CCCCC1
- cytoprotection (ATP increase) [1]: inactive: 12.9%

SMILES: O=C(/C=C/c1ccccc1)OC1CN2CCC1CC2 (stereo not given)
- cytoprotection (ATP increase) [1]: inactive: -1.96%

SMILES: CC1CCC(C(C)C)C(OP(=O)(Nc2ccccn2)c2ccccc2)C1 (stereo not given)
- cytoprotection (ATP increase) [1]: inactive: -181% [at 56.4 µM]

SMILES: Cc1nn(-c2ccccc2)c2c1P(=O)(N1CCOCC1)N(C)C(c1ccccc1)=N2 (stereo not given)
- cytoprotection (ATP increase) [1]: inactive: -3.43%

SMILES: CN(C(=O)Cc1ccc(Cl)c(Cl)c1)[C@@H]1CCCC[C@H]1N1CCCC1
- cytoprotection (ATP increase) (at 56.4 µM (top of the series)): inactive: -81.8%

SMILES: CC(C)/C=N\N=C(\N)N[N+](=O)[O-]
- cytoprotection (ATP increase) [1]: inactive: -31% [at 56.4 µM]

SMILES: O=[As](O)(c1ccccc1Br)c1ccccc1Br
- cytoprotection (ATP increase) [1]: inactive: 14.6%

SMILES: CC(C)(C)C(=O)NC(Sc1ncccn1)C(Cl)(Cl)Cl (stereo not given)
- cytoprotection (ATP increase) [1]: inactive: -8.15%

SMILES: Clc1n[nH]nc1-c1nn[nH][15n]1
- cytoprotection (ATP increase) [1]: inactive: 19.2% [at 56.4 µM]

SMILES: O=P1(Nc2ccccn2)COc2ccccc2OC1
- cytoprotection (ATP increase) [1]: inactive: 1.07% [at 56.4 µM]

SMILES: CN(CCCl)Cc1cc(Cl)c(NC2=NCCN2)c(Cl)c1
- cytoprotection (ATP increase) (at 1.9 µM (top of the series)): inactive: 12.8%
- cytoprotection (ATP increase) (at 56.4 µM (top of the series)): inactive: -60.7%

SMILES: CCOP(=O)(Nc1ccc(C)cn1)OCC
- cytoprotection (ATP increase) [1]: inactive: 21%

SMILES: COc1cc(C2NCCC3(OCCO3)C2(C)C)cc(OC)c1OC (stereo not given)
- cytoprotection (ATP increase) [1]: inactive: 7.83% [at 0.074 µM]

SMILES: CN(C(=O)Cc1ccc(Cl)c(Cl)c1)[C@@H]1CC[C@@]2(CCCO2)C[C@H]1N1CCCC1
- cytoprotection (ATP increase) [1]: inactive: 6.86% [at 1.9 µM]

SMILES: O=C(CC(=O)c1ccccc1)O[C@H]1CN2CCC1CC2
- cytoprotection (ATP increase) [1]: inactive: 19.4%

SMILES: Nc1cccc2c([As](=O)(O)O)cccc12
- cytoprotection (ATP increase) [1]: inactive: 20.3%

SMILES: NS(=O)(=O)Cc1ccc([As](=O)(O)O)cc1
- cytoprotection (ATP increase) [1]: inactive: 4.1%

SMILES: CCCOP(=S)(Nc1nc(N)cc(=O)[nH]1)OCCC
- cytoprotection (ATP increase) [1]: inactive: -31.6%

SMILES: O=[As](O)(c1cccc(O)c1)c1cccc(O)c1
- cytoprotection (ATP increase) [1]: inactive: 18.6%

SMILES: Cc1cccc(OCC(=O)OC2CN3CCC2CC3)c1 (stereo not given)
- cytoprotection (ATP increase) [1]: inactive: -4.86% [at 56.4 µM]

SMILES: CN(C(=O)Cc1ccc(Cl)c(Cl)c1)[C@@H]1CC[C@]2(CCCO2)C[C@H]1N1CCCC1
- cytoprotection (ATP increase) [1]: inactive: -45% [at 56.4 µM]

SMILES: O=C(OC1CN2CCC1CC2)c1ccc(Cl)cc1 (stereo not given)
- cytoprotection (ATP increase) [1]: inactive: 10.7%

SMILES: O=[As](O)(O)c1cccnc1
- cytoprotection (ATP increase) [1]: inactive: 3.39%

SMILES: CN(C(=O)Cc1ccccc1)[C@@H]1CC[C@]2(CCCO2)C[C@H]1N1CCCC1
- cytoprotection (ATP increase) [1]: inactive: 17%

SMILES: CCOP1(=S)c2c(C)nn(CCC#N)c2N=C(c2ccc(F)cc2)N1C (stereo not given)
- cytoprotection (ATP increase) [1]: inactive: -4.09%

SMILES: O=[N+]([O-])c1ccc2c(c1)nnn2O
- cytoprotection (ATP increase) [1]: inactive: 0.691% [at 56.4 µM]

SMILES: NC(=O)Nc1ccc([As](=O)(O)O)cc1
- cytoprotection (ATP increase) (at 10 µM (top of the series)): inactive: -9.44%
- cytoprotection (ATP increase) (at 56.4 µM (top of the series)): inactive: -1.63%

SMILES: O=C(O)COc1ccc([As](=O)(O)O)cc1[N+](=O)[O-]
- cytoprotection (ATP increase) [1]: inactive: -11.8%

SMILES: Nc1ccccc1[As](=O)(O)c1ccccc1
- cytoprotection (ATP increase) [1]: inactive: 6.88%

SMILES: O=[As](O)(O)c1ccc([As](=O)(O)O)cc1
- cytoprotection (ATP increase) [1]: inactive: -1.02%

SMILES: O=P(Nc1nccs1)(c1ccccc1)c1nc2ccccc2s1 (stereo not given)
- cytoprotection (ATP increase) [1]: inactive: 0.577%

SMILES: O=P(Nc1nccs1)(Oc1ccccc1)Oc1ccccc1
- cytoprotection (ATP increase) [1]: inactive: -25.7% [at 56.4 µM]

SMILES: CCOP1(=S)c2c(C)nn(CCC#N)c2N=C(c2ccccc2F)N1C (stereo not given)
- cytoprotection (ATP increase) [1]: inactive: -5.47%

SMILES: CS(=O)(=O)c1cc([N+](=O)[O-])c2no[n+]([O-])c2c1
- cytoprotection (ATP increase) [1]: inactive: 23.2%

SMILES: CCN(CC)C(=S)SC(NC=O)C(Cl)(Cl)Cl (stereo not given)
- cytoprotection (ATP increase) [1]: inactive: -23.1% [at 56.4 µM]

SMILES: CC(C)NC(=O)NP(=O)(Oc1ccccc1)Oc1ccccc1
- cytoprotection (ATP increase) [1]: inactive: -5.9% [at 56.4 µM]

SMILES: ClCCSc1nnc(-c2cccnc2)o1
- cytoprotection (ATP increase) [1]: inactive: 5.57%

SMILES: O=[As]c1ccc(S(=O)(=O)NCCO)cc1 (stereo not given)
- cytoprotection (ATP increase) [1]: inactive: -2.36%

SMILES: CC(C)c1ccc(OP(=O)(Nc2ccccn2)Oc2ccccc2F)cc1 (stereo not given)
- cytoprotection (ATP increase) [1]: inactive: 26.7%

SMILES: [N-]=[N+]=NCC(N)=O
- cytoprotection (ATP increase) [1]: inactive: -3.06%

SMILES: Cc1ccc(OP(=O)(Nc2ccc([N+](=O)[O-])cn2)Oc2ccc(C)cc2)cc1
- cytoprotection (ATP increase) [1]: inactive: 17.4%

SMILES: Cc1ccc2nc3c(c(C)c2c1)CC(C(Cl)Cl)S3 (stereo not given)
- cytoprotection (ATP increase) [1]: inactive: 27.6%

SMILES: O=[As](O)(c1ccc(O)cc1)c1ccccc1O
- cytoprotection (ATP increase) [1]: inactive: 17.2%

SMILES: C[As](=O)(O)c1cccc(C(=O)O)c1
- cytoprotection (ATP increase) [1]: inactive: 9.32%

SMILES: COc1ccc(N/C(=N/P(=O)(N2CCOCC2)N2CCOCC2)N2CCOCC2)cc1
- cytoprotection (ATP increase) [1]: inactive: -25.1% [at 56.4 µM]

SMILES: COc1cc(I)ccc1[As](=O)(O)O
- cytoprotection (ATP increase) [1]: inactive: -7.72%

SMILES: NC(=O)Nc1cc([As](=O)(O)O)cc(I)c1O
- cytoprotection (ATP increase) [1]: inactive: 8.62%

SMILES: COc1ccc2nc(NP(=O)(c3ccccc3)c3ccccc3)sc2c1
- cytoprotection (ATP increase) [1]: inactive: 6.72%

SMILES: Cc1c2c(nc3ccccc13)SC(C(Cl)Cl)C2 (stereo not given)
- cytoprotection (ATP increase) [1]: inactive: 6.28%

SMILES: O=C(OC1CN2CCC1CC2)C12CC3CC(CC(C3)C1)C2 (stereo not given)
- cytoprotection (ATP increase) [1]: inactive: -21.4% [at 0.074 µM]

SMILES: CCC(C)N(CC(C)C)C(=S)SC(NC(C)=O)C(Cl)(Cl)Cl (stereo not given)
- cytoprotection (ATP increase) [1]: inactive: -20.4% [at 1.9 µM]

SMILES: CCOC(=O)c1ccc(NC(=O)C(C)(CCl)SC)cc1 (stereo not given)
- cytoprotection (ATP increase) [1]: inactive: 22.1%

SMILES: O=C(O)[C@@H](O)c1ccc([As](=O)(O)O)cc1
- cytoprotection (ATP increase) [1]: inactive: 14.2%

SMILES: O=C(COc1ccccc1)OC1CN2CCC1CC2 (stereo not given)
- cytoprotection (ATP increase) [1]: inactive: 4.24%

SMILES: COP1(=S)c2c(C)nn(CCC#N)c2N=C(c2ccc(F)cc2)N1C (stereo not given)
- cytoprotection (ATP increase) [1]: inactive: -11.4%

SMILES: CN(N=O)C(=N)N[N+](=O)[O-]
- cytoprotection (ATP increase) [1]: inactive: -63.9% [at 56.4 µM]

SMILES: Cc1cc(SC(NC=O)C(Cl)(Cl)Cl)ncn1 (stereo not given)
- cytoprotection (ATP increase) [1]: inactive: -16.7% [at 56.4 µM]

SMILES: O=P(Nc1ccccn1)(c1cccc2ccccc12)c1cccc2ccccc12
- cytoprotection (ATP increase) [1]: inactive: -32.3% [at 56.4 µM]
